Inhibition data for 75 compounds are collected here from PubChem BioAssay AID588354 (The Scripps Research Institute Molecular Screening Center, 2011).

The chains behind the UniProt entries cited, without tags or fusion partners. Where a name states a change or a piece, a line headed by the entry shows the natural chain unless it says otherwise.
UniProt Q15788: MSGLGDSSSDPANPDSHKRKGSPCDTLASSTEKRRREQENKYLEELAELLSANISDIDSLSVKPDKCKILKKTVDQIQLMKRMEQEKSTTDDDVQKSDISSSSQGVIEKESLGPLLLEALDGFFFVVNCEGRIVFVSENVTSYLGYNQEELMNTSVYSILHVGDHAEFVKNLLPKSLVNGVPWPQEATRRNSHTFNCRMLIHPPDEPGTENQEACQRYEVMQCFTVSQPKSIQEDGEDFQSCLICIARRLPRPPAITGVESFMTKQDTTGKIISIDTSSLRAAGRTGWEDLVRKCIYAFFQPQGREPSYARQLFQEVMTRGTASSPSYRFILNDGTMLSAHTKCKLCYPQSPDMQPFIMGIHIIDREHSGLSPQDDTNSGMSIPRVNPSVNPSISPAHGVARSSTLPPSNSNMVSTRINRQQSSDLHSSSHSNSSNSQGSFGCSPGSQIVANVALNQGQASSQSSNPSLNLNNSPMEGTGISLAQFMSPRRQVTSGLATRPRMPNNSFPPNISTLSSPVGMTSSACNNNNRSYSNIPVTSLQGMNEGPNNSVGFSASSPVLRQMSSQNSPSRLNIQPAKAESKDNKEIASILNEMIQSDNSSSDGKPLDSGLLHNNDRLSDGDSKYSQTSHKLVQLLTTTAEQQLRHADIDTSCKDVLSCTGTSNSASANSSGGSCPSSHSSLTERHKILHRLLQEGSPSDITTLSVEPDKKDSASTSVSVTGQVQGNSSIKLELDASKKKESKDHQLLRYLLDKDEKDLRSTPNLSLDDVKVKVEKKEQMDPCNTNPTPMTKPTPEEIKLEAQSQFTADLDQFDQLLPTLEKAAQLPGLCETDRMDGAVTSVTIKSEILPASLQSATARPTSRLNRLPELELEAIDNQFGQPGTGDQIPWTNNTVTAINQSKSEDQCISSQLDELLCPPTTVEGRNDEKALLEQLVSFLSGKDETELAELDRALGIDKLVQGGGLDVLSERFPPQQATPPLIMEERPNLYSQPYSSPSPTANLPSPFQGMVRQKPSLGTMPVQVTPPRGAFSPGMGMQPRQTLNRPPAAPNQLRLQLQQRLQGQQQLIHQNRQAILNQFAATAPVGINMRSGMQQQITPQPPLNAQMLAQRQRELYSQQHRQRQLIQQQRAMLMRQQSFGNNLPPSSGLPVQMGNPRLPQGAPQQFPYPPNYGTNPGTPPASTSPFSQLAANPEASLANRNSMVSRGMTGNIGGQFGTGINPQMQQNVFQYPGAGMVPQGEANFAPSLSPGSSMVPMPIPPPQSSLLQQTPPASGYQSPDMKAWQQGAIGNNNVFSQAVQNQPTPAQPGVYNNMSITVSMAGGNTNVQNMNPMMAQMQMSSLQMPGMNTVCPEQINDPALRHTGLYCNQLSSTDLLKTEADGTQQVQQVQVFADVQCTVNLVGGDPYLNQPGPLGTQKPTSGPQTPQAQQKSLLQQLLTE

This is a selection; strong and weak results do not stand in their true shares. Active and inactive are the calls of the source.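 How the source made its calls: active means inhibition above the campaign mean plus 3 SD, with each screening campaign given its own cutoff (cut at about 60% in these data); inactive means the rest.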

In this experiment the target is Nuclear receptor coactivator 1 (Homo sapiens) (UniProt Q15788). Kind of experiment: NCOA1 GAL4-fusion reporter inhibition – cell-based, luminescence, primary screen (AID 588354).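 Further: 0% = DMSO treated cells and 100% = gossypol at 36 µM.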 The following applies: HEK293 GAL4-SRC1 luciferase reporter, at 3.6 µM, active compounds read high.
The term inhibition denotes the change of the read-out against control, counted positive when it falls. Turning to `O=P(Nc1nc2ccccc2s1)(c1ccccc1)c1ccccc1`, the inhibition is inactive: -8.2%. Then `Nc1ccc(CCCCOc2ccccc2)cc1`, with inactive: -35.2%; and `COc1ccc(N)c([N+](=O)[O-])c1[N+](=O)[O-]`, with inactive: -6.08%; and `O=P(Nc1ccccn1)(c1ccc(Br)cc1)c1ccc(Br)cc1`, with inactive: -12.2%. For `CN(C)C1(CNC(=O)c2ccc(Cl)c(S(N)(=O)=O)c2)CCCCC1` the value was inactive: 2.6%; for `CN(C)C(=O)Oc1noc2ccccc12`, inactive: 8.44%. On to `O=c1c2cc([N+](=O)[O-])ccc2[nH]c2c([N+](=O)[O-])cc([N+](=O)[O-])cc12`, for which the inhibition is inactive: -27.8%. Regarding `Cc1ccccc1OP(=O)(Nc1ccccn1)Oc1ccccc1C`, the inhibition was inactive: 14%. For the compound `CC(NC(=O)COC(=O)C(O)(c1ccccc1)c1ccccc1)c1ccccc1` (stereo not given), the inhibition was inactive: -5.67%. As for `Cc1ccc(OP(=O)(Nc2ccccn2)Oc2ccc(C)cc2)cc1`, the inhibition was inactive: -28.9%. Regarding `CC(=O)NC(SC(=S)N(CC(C)C)CC(C)C)C(Cl)(Cl)Cl` (stereo not given), the inhibition was inactive: 13%. Take `COC(=O)c1cc2c(s1)N=C(c1ccccc1)N(C)P2(=O)N1CCOCC1` (stereo not given): the inhibition is inactive: -15.4%. With `CCC(=O)N1C2C3N(C(=O)CC)C1C1N(C(=O)CC)C(C(N1C(=O)CC)N3C(=O)CC)N2C(=O)CC`, the inhibition is inactive: -1.04%. For `O=C(OC1CN2CCC1CC2)c1ccccc1` (stereo not given) the value was inactive: 5.48%. Regarding `O=P1(N(CCCl)CCCl)OCCC2CCCCN21` (stereo not given), the inhibition is inactive: 5.02%.

With `CCNC(=S)/N=C(\N)N[N+](=O)[O-]`, the inhibition is inactive: -2.71%. For `O=C(NC1CCS(=O)(=O)C1)NP(=S)(Oc1ccccc1)Oc1ccccc1` (stereo not given), the inhibition is inactive: -13.9%. As to `Cc1ccc(NP(=O)(Oc2cccc(C)c2)Oc2cccc(C)c2)nc1`, the inhibition is inactive: 12%. As for `c1ccc(-c2nn[nH]n2)c(-c2nn[nH]n2)c1`, the inhibition was inactive: 3.06%. As to `CC(=O)Nc1ccc(Oc2c([N+](=O)[O-])cc([N+](=O)[O-])cc2[N+](=O)[O-])cc1`, the inhibition was inactive: 2.73%. In the case of `CC(=O)Nc1ccc([As](=O)(O)O)c(O)c1`, the inhibition was inactive: 5.68%. Turning to `COC(=O)C1(C)COP(=O)(NCc2ccccc2)OC1` (stereo not given), the inhibition is inactive: -37.5%. As for `N#C/C(=C\c1ccc(N(CCBr)CCBr)cc1)C(N)=O`, the inhibition was inactive: -15.5%.

On to `CC(=O)c1ccc(N2CC2c2ccncc2)cc1` (stereo not given), for which the inhibition was inactive: -33.2%. `C[C@@H]1C=CCP(=O)(Oc2ccccc2)O1` (stereo not given in full): the inhibition was inactive: -16.4%. Then `C[C@H]1OP(=O)(Oc2ccccc2)C[C@@H]2O[C@@H]21` (stereo not given in full), with inactive: 0.36%; and `Cc1ccccc1CN(C)C(=O)COC(=O)C(O)(c1ccccc1)c1ccccc1`, with inactive: -3.84%.

Take `CCc1cc(O)c([N+](=O)[O-])c(C)c1[N+](=O)[O-]`: the inhibition was inactive: 2.51%. For the compound `CC(C)(C)C(=O)NC(Sc1ccccc1)C(Cl)(Cl)Cl` (stereo not given), the inhibition was inactive: 6.28%. On to `CCOc1ccc(C2=NCC(CBr)S2)cc1` (stereo not given), for which the inhibition was inactive: 2.32%.

Turning to `O=P1(Nc2nc3ccc(Cl)cc3s2)COc2ccccc2O1` (stereo not given), the inhibition was inactive: -26%. Then `O=[N+]([O-])C1C(O)C(O)C([N+](=O)[O-])C(O)C1O` (stereo not given), with inactive: -0.97%; and `CC(C)CC(=O)NC(Sc1ccc(Cl)cc1)C(Cl)(Cl)Cl` (stereo not given), with inactive: -10.9%. For the compound `Nc1cc(N)c2nonc2c1[N+](=O)[O-]`, the inhibition is inactive: 4.31%. Take `O=C(NC(Sc1ccncn1)C(Cl)(Cl)Cl)c1ccccc1` (stereo not given): the inhibition is inactive: 5.23%.

Regarding `Oc1ccccc1CNc1ccccn1`, the inhibition is inactive: 5.24%.

Turning to `Cc1ccc(OP(=O)(Nc2nccs2)Oc2ccc(C)cc2)cc1`, the inhibition is inactive: 8.4%. Then `COc1ccccc1OP(=O)(Nc1ccc(C)cn1)Oc1ccccc1OC`, with inactive: -3.34%; and `Clc1ccc(Cl)c(NC2=NCC(CBr)S2)c1` (stereo not given), with inactive: -22.5%; and `CN1CCCC(OC(=O)C(c2ccccc2)c2ccccc2)C1` (stereo not given), with inactive: 2.41%. Take `NC(=O)c1cc([N+](=O)[O-])cc([N+](=O)[O-])c1N`: the inhibition is inactive: 4.23%. Take `Cc1ccc(N/C(=N/P(=O)(N2CCOCC2)N2CCOCC2)N2CCOCC2)cc1`: the inhibition was inactive: -14.1%. In the case of `CN(C(=O)Cc1ccc(Cl)c(Cl)c1)[C@H]1CCCC[C@H]1N1CCCC1`, the inhibition was inactive: 7.39%. `CCN(N=Nc1nonc1N)c1nonc1N`: the inhibition was inactive: 17.6%. Consider `Nc1cccc2ccc([As](=O)(O)O)cc12`, for which the inhibition was inactive: 2.94%. For `Cc1ccc(NP(=O)(Oc2ccccc2F)Oc2ccccc2F)nc1`, the inhibition is inactive: 1.97%. In the case of `CN(C(=O)Cc1ccc(Cl)c(Cl)c1)[C@H]1CCCC[C@@H]1N1CCCC1`, the inhibition is inactive: 4.2%. For the compound `CCOP(=O)(Nc1ccccc1)OCC`, the inhibition is inactive: 2.84%. For `Cc1cc(SC(NC(=O)c2ccc(F)cc2)C(Cl)(Cl)Cl)ncn1` (stereo not given) the value was inactive: 0.58%; for `CCCC1OP(N)(=O)OCC1CC` (stereo not given), inactive: -0.4%. As for `O=C(O)c1ccccc1[As](=O)(O)O`, the inhibition was inactive: 12.4%. As to `CC(=O)Nc1ccc([As](=O)(O)O)cc1`, the inhibition is inactive: 16.9%. Take `CN(C)P(=O)(N(C)C)n1c(Nc2ccccc2)nnc1-c1ccccc1`: the inhibition is inactive: -92.8%.

`O=P(Nc1nc2ccc(Cl)cc2s1)(c1ccccc1)c1ccccc1`: the inhibition was inactive: -4.5%. For the compound `O=[N+]([O-])c1cccc(NC2=NCC(CBr)S2)c1` (stereo not given), the inhibition was inactive: 13.5%. Take `COC(=O)C1(C)COP(=O)(Nc2ccccc2)OC1` (stereo not given): the inhibition was inactive: 1.57%.

Regarding `O=C(O)CNc1ccc([As](=O)(O)O)cc1`, the inhibition is inactive: 2.8%. For `CC(C)(C)C(=O)NC(Sc1ccncn1)C(Cl)(Cl)Cl` (stereo not given), the inhibition is inactive: 8.16%. Regarding `O=[N+]([O-])c1ncn(CCn2ncnc2[N+](=O)[O-])n1`, the inhibition is inactive: -7.06%. `O=C(Nc1cc([As](=O)(O)O)ccc1O)c1ccccc1`: the inhibition is inactive: -20.2%. With `O=P1(N(CCCl)CCCl)OCCCS1` (stereo not given), the inhibition was inactive: 9.45%. `CN(C)C(=O)OCCc1n(C)cc[n+]1C`: the inhibition is inactive: 16.7%. Regarding `CC(C)=N/N=C(\N)N[N+](=O)[O-]`, the inhibition was inactive: 0.4%. For the compound `CC(C)c1nc(Nc2ccccc2)n(P(=O)(N(C)C)N(C)C)n1`, the inhibition is inactive: 7.22%. Then `c1cc(-c2nn[nH]n2)ccc1-c1nn[nH]n1`, with inactive: -3.27%; and `CC1CCN(C(=O)Oc2c(Cl)cc(Cl)c3cccnc23)CC1`, with inactive: -12.5%; and `C[N+]1=C2C=CC=CC=C2SC12C([N+](=O)[O-])=CC([N+](=O)[O-])=C[C-]2[N+](=O)[O-]` (stereo not given), with inactive: -70.3%. As to `Nc1ccc([As](=O)(O)c2ccc(N)cc2)cc1`, the inhibition is inactive: -16.6%. Consider `CCN(/C(=N/P(=O)(N1CCOCC1)N1CCOCC1)N1CCOCC1)c1ccc(OC)cc1`, for which the inhibition is inactive: 2.57%. As to `O=[N+]([O-])c1cccc2n[nH]nc12`, the inhibition is inactive: 2.95%. Turning to `CC(=O)N1C2C3N(C(C)=O)C1C1N(C(C)=O)C(C(N1C(C)=O)N3C(C)=O)N2C(C)=O`, the inhibition was inactive: -4.43%.

Regarding `CCc1nc2c(n1)c1c(non1O)c1c2no[n+]1[O-]`, the inhibition was inactive: -21.1%. For the compound `O=[N+]([O-])c1cc([N+](=O)[O-])c(CCNc2ccccc2)c([N+](=O)[O-])c1`, the inhibition is inactive: -14.5%.

As for `Cc1ccc(NP(=O)(Oc2ccccc2)Oc2ccccc2)nc1`, the inhibition was inactive: 5.11%. On to `COc1ccc(C2=NCC(CBr)S2)cc1` (stereo not given), for which the inhibition was inactive: 2.37%.
